# OPERA 2.9 data: melting point values

Source: data files of OPERA 2.9 (Mansouri et al.), github.com/kmansouri/OPERA.

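OPERA's authors assembled the values from existing databases and did not measure them anew. One number stands for a compound and property, with no spread given. Conditions of the individual experiments are not part of the data. Where a salt, mixture or single isomer is drawn, the source does not say that exactly this form was tested. Some upstream entries may be estimates or bounds without being marked so.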

Melting points are in °C.

For CCC(=O)O[C@]1(C(=O)CO)[C@@H](C)C[C@H]2[C@@H]3CCC4=CC(=O)C=C[C@]4(C)[C@@]3(F)[C@@H](O)C[C@@]21C [Betamethasone 17-propionate] the data give melting point 236.6 °C. For COc1cc([N+](=O)[O-])cc2sc(N)nc12 [4-methoxy-6-nitro-1,3-benzothiazol-2-amine] the data give melting point 280 °C. Cn1nnnc1-c1cccc(N)c1 [3-(1-Methyl-1H-tetrazol-5-yl)aniline] has melting point 148 °C. For COC(=O)c1cc([N+](=O)[O-])ccc1N [methyl 2-amino-5-nitrobenzoate] the data give melting point 164 °C. Listed for NNc1ncc(Cl)cc1Cl [3,5-dichloro-2-hydrazinylpyridine]: melting point 180 °C. CS(=O)(=O)c1ccccc1N [2-(Methanesulfonyl)anilinato] has melting point 63 °C. S=c1[nH]nc(-c2ccc3c(c2)OCO3)o1 [5-(2H-1,3-Benzodioxol-5-yl)-1,3,4-oxadiazole-2(3H)-thione] is reported with melting point 180 °C. Nc1ccc2sc(N)nc2n1 [Thiazolo[4,5-b]pyridine-2,5-diamine] is reported with melting point 194 °C.

O=C(O)c1ccc(CSc2ccccc2)cc1 [4-(Phenylsulfanylmethyl)benzoic Acid] is reported with melting point 180 °C. For CCOC(=O)C(=O)CC(=O)c1ccc(Cl)cc1 [Ethyl 4-(4-chlorophenyl)-2,4-dioxobutanoate] the data give melting point 63 °C. The entry for O=C1CSCc2ccccc21 [Isothiochromanone] lists melting point 57 °C. For O=C(O)c1cccc(S(=O)(=O)N2CCCC2)c1 [3-(Pyrrolidine-1-sulfonyl)benzoic acid] the data give melting point 158 °C. For OCC[N+](CCO)(CCO)CCO.[OH-] the data give melting point 123 °C. Cc1ccccc1-c1cc(N)on1 [3-(2-Methylphenyl)-1,2-oxazol-5-amine] has melting point 100 °C. The entry for Cc1c2ccccc2c(CBr)c2ccc3ccccc3c12 lists melting point 152.5 °C. Listed for Fc1ccccc1Nc1n[nH]c(=S)s1 [5-(2-Fluoroanilino)-1,3,4-thiadiazole-2(3H)-thione]: melting point 171 °C.

The entry for Cc1cccc(NC(=O)CCCCl)c1 [4-chloro-N-(3-methylphenyl)butanamide] lists melting point 138 °C. Listed for Oc1ccc(CN2CCCC2)c2cccnc12 [5-(pyrrolidin-1-ylmethyl)quinolin-8-ol]: melting point 113 °C. CC(=O)NCC(=O)NCC(=O)O [N-Acetylglycylglycine] is reported with melting point 175 °C. The entry for Nc1ccc(OCC(F)(F)F)cc1 [4-(2,2,2-trifluoroethoxy)aniline] lists melting point 67 °C. The entry for Nc1ccc(S(=O)(=O)Nc2ccccc2Cl)cc1 [4-Amino-N-(2-chlorophenyl)benzene-1-sulfonamide] lists melting point 160 °C. For FC(F)(F)C(F)(F)C(F)(F)C(F)(F)C(F)(F)C(F)(F)c1ccc(-c2ccc(-c3ccc(-c4ccc(C(F)(F)C(F)(F)C(F)(F)C(F)(F)C(F)(F)C(F)(F)F)s4)s3)s2)s1 the data give melting point 207.5 °C. The entry for CCOC(=O)c1ccccc1NC [Ethyl N-methylanthranilate] lists melting point 39 °C. For Cc1cc(=O)c(C(=O)O)nn1-c1ccccc1 the data give melting point 168 °C.

For CCCOc1ccc(C(=O)NN)cc1 [4-propoxybenzohydrazide] the data give melting point 89 °C. The entry for Cc1ccccc1-c1nnc(N)o1 [1,3,4-Oxadiazole, 2-amino-5-(o-tolyl)-] lists melting point 161 °C. Listed for CC(=O)OCC(=O)[C@@]1(O)[C@H](O)C[C@H]2[C@@H]3CCC4=CC(=O)C=C[C@]4(C)C3=CC[C@@]21C: melting point 203.6 °C. Listed for CCn1cc(C=O)c2ccccc21 [1-Ethyl-1H-indole-3-carbaldehyde]: melting point 105 °C. The entry for Cc1noc(C(C)C)c1C(=O)O [3-Methyl-5-(propan-2-yl)-1,2-oxazole-4-carboxylic acid] lists melting point 149 °C. For Cc1c(C(=O)O)oc2ccc(Cl)cc12 [5-Chloro-3-methyl-1-benzofuran-2-carboxylic acid] the data give melting point 256 °C. O=C(O)c1ccccc1NS(=O)(=O)c1ccc(F)cc1 [Benzoic acid, 2-(((4-fluorophenyl)sulfonyl)amino)-] is reported with melting point 166 °C. The entry for O=C(c1ccc(Cl)cc1Cl)N1CCNCC1 [1-(2,4-dichlorobenzoyl)piperazine] lists melting point 109 °C.

The entry for NC(=O)NC1CC1 [N-cyclopropylurea] lists melting point 115 °C. Cc1nc2ccc(N)cc2o1 [2-Methyl-1,3-benzoxazol-6-amine] is reported with melting point 130 °C. The entry for Cc1c(Cl)cccc1N1C(=O)C=CC1=O [1-(3-Chloro-2-methylphenyl)-1H-pyrrole-2,5-dione] lists melting point 69 °C. CN(C)CCN(Cc1ccc(Cl)cc1)c1ccccn1 [Chloropyramine [INN:BAN:DCF]] has melting point 42.5 °C. For Cc1ccc(NC(=O)C(Cl)c2ccccc2)cc1 (stereo not drawn) the data give melting point 145 °C. Cc1nc2cc(Cl)ccc2c(=O)n1N [3-amino-7-chloro-2-methylquinazolin-4(3H)-one] has melting point 203 °C. Listed for O=C(O)c1c(O)ccc(F)c1F [2,3-Difluoro-6-hydroxybenzoic acid]: melting point 182.5 °C. COc1ccc(OC)c(NC(=O)CCl)c1 [Acetanilide, 2-chloro-2',5'-dimethoxy-] is reported with melting point 170 °C.

For O=C1C(=O)N(Cc2ccccc2)c2ccccc21 [1-Benzyl-1H-indole-2,3-dione] the data give melting point 93 °C. O=C(O)CCNC(=O)c1ccco1 [3-(2-furoylamino)propanoic acid] has melting point 137 °C. Listed for Cc1cc(CN)cc(C)c1O [4-(Aminomethyl)-2,6-dimethylphenol]: melting point 100 °C. N/N=C1\c2ccccc2C(=O)C1C(=O)C(c1ccccc1)c1ccccc1 (stereo partly drawn) [(3Z)-2-(Diphenylacetyl)-3-hydrazono-1-indanone] is reported with melting point 242 °C. Listed for O=C(O)CNC(=O)c1ccc2ccccc2c1 [2-Naphthoylglycine]: melting point 173 °C. The entry for NC(=O)CC1CCCC1 [2-Cyclopentylacetamide] lists melting point 150 °C.

The 5 lowest values of melting point among the entries above:

For CCOC(=O)c1ccccc1NC [Ethyl N-methylanthranilate] the data give melting point 39 °C.
For CN(C)CCN(Cc1ccc(Cl)cc1)c1ccccn1 [Chloropyramine [INN:BAN:DCF]] the data give melting point 42.5 °C.
For O=C1CSCc2ccccc21 [Isothiochromanone] the data give melting point 57 °C.
For CS(=O)(=O)c1ccccc1N [2-(Methanesulfonyl)anilinato] the data give melting point 63 °C.
For CCOC(=O)C(=O)CC(=O)c1ccc(Cl)cc1 [Ethyl 4-(4-chlorophenyl)-2,4-dioxobutanoate] the data give melting point 63 °C.